Data: patent US20060183677A1, “Novel exendin agonist formulations and methods of administration thereof” (priority 2002, published 2006)

Test system: Sprague-Dawley rats
Experiment: Insulinotropic action during intravenous glucose challenge in rats (Example 5)

Substance: GLP-1[7-36]NH2
- increase in plasma insulin concentration with the glucose challenge (30 pmol/kg/min i.v.): 2.9 fold
- peak plasma insulin concentration after the glucose challenge (30 pmol/kg/min i.v.): 1145 ± 169 pM
- plasma glucose concentration before glucose injection (30 pmol/kg/min i.v. infusion): 10.3 ± 0.4 mM
